# AlphaSeq binding of Ab-14 heavy chain variants to a spike HR2 peptide

Values reported by Li et al. 2023, doi:10.1038/s41467-023-39022-2 (FLAb copy).

Target: peptide PDVDLGDISGINAS, taken from heptad repeat 2 (HR2) of SARS-CoV-2 spike.

Parent scFv Ab-14: VH joined to VL by a (GGGGS)3 linker. Changes lie in the heavy chain CDRs alone.
VH: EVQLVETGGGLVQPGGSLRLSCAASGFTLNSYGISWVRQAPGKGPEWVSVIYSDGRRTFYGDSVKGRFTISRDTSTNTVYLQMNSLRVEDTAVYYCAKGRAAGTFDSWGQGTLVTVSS
VL: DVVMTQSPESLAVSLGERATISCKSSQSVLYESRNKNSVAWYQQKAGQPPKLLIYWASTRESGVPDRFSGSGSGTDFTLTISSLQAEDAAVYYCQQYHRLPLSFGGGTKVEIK

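The starting antibody came from a phage panning campaign against this peptide. The variants were designed computationally from a first round of random CDR variants and then made and measured. Their group label is 14H_Rand (Rand: our label for a block that the file lists under HC and that is probably the random mutants of the ten best first-round binders). The scFvs were displayed on barcoded MATa yeast, the peptide on MATalpha yeast. The frequency of each diploid, read from paired DNA barcodes, reflects how well the two displayed proteins bind. Scores were corrected for input abundance and mapped to Kd with protein pairs of known affinity run in the same pool. The assay was run in six technical replicates.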

The parent's heavy chain CDRs are GFTLNSYGIS, VIYSDGRRTFYGDSVK, GRAAGTFDS; each variant's own CDRs replace them letter for letter.
Values are log10 of the apparent Kd in nM; lower means stronger binding.
Where no diploid with the target was found in that replicate, the entry reads "ND": below detection, most likely a poor binder, though not proof of it.
The parent sequence was in this pool as ten entries: three were never detected, three once, and four in most replicates, with averages from 0.34 to 2.37.
Three control strains display no target. For all heavy chain designs, 1% of the pairings with them gave a signal, with a median of 2.08 and one signal in twenty below 0.84, so weak values seen in few replicates may be background. Also given: how often the same scFv was detected with the empty control strains, with their mean in brackets.
The authors averaged sequences with at least three values out of six and counted those with two or fewer as poor binders.
Values of this round are not directly comparable with the first-round values of the same sequences.

CDR-H1	CDR-H2	CDR-H3	log10 Kd (nM) by replicate	signal with controls
GFTLNEYGIS	VIYSDGRRTFYGDSFK	GRAAVTPDQ	ND / ND / ND / ND / ND / ND	0 of 18
GFDLNSYGIF	VRYSDGRRTFYGDSVK	GRAAGWFNS	ND / ND / ND / ND / ND / ND	0 of 18
GFTLNSYGIS	VIYSDGRRHFYSDSVK	GRAGGTFDS	1.66 / 2.08 / 1.93 / 2.02 / 1.44 / 1.89	0 of 18
GFTENQYGIS	VNYSDGRRTFYSDSVK	GTAAGFFSS	ND / ND / ND / ND / ND / ND	1 of 18 (2.28)
GFDLNSYGIS	VIYSDGRRTFYGQSVK	GRAAGNFNS	ND / ND / ND / ND / ND / ND	0 of 18
GFTLNDYGIS	VIYSDGRRTFYGDSVK	GPAALTFIS	ND / ND / ND / ND / ND / ND	0 of 18
GFTLNDYGIS	VIYSDGRRTFYGDSVK	GRADLTFIS	ND / ND / ND / ND / ND / ND	0 of 18
GKTLNSYVIF	VIYADGRRTFYGDSVK	GRAAGTNKS	ND / ND / 2.81 / ND / ND / ND	0 of 18
GFTLNSYGIS	VIYSDGRRTFYSDSVK	GRAGGTSCS	ND / ND / ND / ND / ND / ND	0 of 18
GITLNSYGIS	VIYSDGRRTFYSESVK	GRAGGTFDS	ND / ND / ND / ND / ND / ND	0 of 18
GFTLNSYGIS	VIYSDGRRTFYSDSVK	GRAGPTFDS	ND / ND / ND / ND / ND / ND	0 of 18
GFTCNSYGIS	VIYSDGRRTFYSDSVK	GRAGGTFDS	ND / ND / ND / ND / ND / ND	0 of 18
GFDLNSYGIS	VIYSDGRRTFYGDSVK	GFAAGWFYS	ND / ND / 1.97 / ND / ND / ND	0 of 18
GFLLNDYGIS	VIYSDGRRTFYKDSVK	GRAASTFIS	ND / ND / ND / ND / ND / ND	0 of 18
GFTLNEYGIE	VIYSDGRRTFYGDSVK	GRTAVTFDQ	ND / ND / ND / ND / ND / ND	0 of 18
GFTLNEYGIS	VIYSDGRRTFYNDSVK	GRFAGTFDS	ND / ND / ND / ND / ND / 0.48	0 of 18
WFTLNQYGIS	VIYSDGRRTFYSKSVK	GRAAGFFDS	ND / ND / ND / ND / 1.99 / ND	1 of 18 (2.88)
FFDLQSYGIS	VIYSDGRRTFYGDSVK	GRAAYWFAS	ND / 1.50 / ND / 1.81 / 1.96 / ND	0 of 18
GFTLNEYGIS	VIYSDGRRTFYTDSVK	GRFAGEFDS	ND / ND / ND / ND / ND / ND	2 of 18 (3.74)
GCTADSYGIS	VITSDGRRTFYGDSVK	DRAAGTALS	ND / ND / ND / ND / 2.86 / ND	1 of 18 (2.00)
GFTLNEYGIS	VIYSDGRREFYGRSVK	GRAAVTTDQ	ND / ND / ND / ND / ND / ND	1 of 18 (3.70)
GHDLNSYGIS	VIYSDGRRTFYGDSVK	GRAAGWFNS	ND / ND / ND / ND / ND / ND	0 of 18
GFTLNEYGMS	VIYSDGRRTFYPDSVK	GRFAGTFDS	ND / -0.01 / ND / ND / ND / 0.45	0 of 18
GFTLNSYDIS	VIYSDGRRTFYDDSVK	GQLAGTFDS	ND / ND / ND / ND / ND / ND	0 of 18
GDTLDSYGIS	VIYSDGRRTPYGDSVK	GRAAGTALS	ND / ND / ND / ND / ND / ND	0 of 18
GFTLNSYGIS	VIYSDGRRTFIDDSVK	GQLAGTFHS	ND / ND / ND / -0.32 / ND / ND	0 of 18
GFTLNSYGIS	VILSDGRRKFYNDSVK	GQLAGTFDS	ND / ND / ND / ND / ND / ND	0 of 18
GFTLNEYGIS	VIYSDGRRTGYTDCVK	GRFAGTFDS	ND / 1.31 / ND / 1.99 / 3.29 / 1.60	0 of 18
NFTLDSYGIS	VMYSDGRRTFWGDSVK	GEAAGTALS	ND / ND / ND / ND / ND / ND	0 of 18
GFTLDSYGIS	VIYSDGRRTFYGDSVK	GRAAGTTLS	ND / ND / ND / ND / ND / ND	0 of 18
GFTLNQYGIS	VIYSDARRTFYSDSVK	GRAAGFFDS	ND / ND / ND / ND / ND / ND	3 of 18 (3.41)
GFRLNSYGIS	VIYADGRRTFYGDSVK	GRAAGTNKS	ND / ND / ND / ND / ND / ND	0 of 18
GFTLNSYGIE	VIYSDGRRTFYDDSVK	GALAGTFDS	ND / ND / ND / ND / ND / ND	0 of 18
GFTLNQYGIS	VIYSDGRRTFYSDSAK	GRAAGFGDS	ND / ND / ND / ND / ND / ND	1 of 18 (0.67)
GATLNDYGNS	VIYSDGRRTFYGDSVK	GRAASTFIS	ND / ND / ND / ND / ND / 2.24	0 of 18
GFTLNSYGIS	VIYSDGRRTFYDDSVK	GQLAGHFYS	ND / ND / ND / ND / ND / ND	0 of 18
GSDLDSYGIS	VIYSDGHRTFYGDSVK	GRAAGWFNS	ND / ND / ND / ND / ND / ND	0 of 18
GFTLDSYGIL	VIYSDGRRPFYGDSVK	GRAAGTALS	ND / ND / ND / ND / ND / ND	0 of 18
GFTLNDYGIS	VIYSDGRRPQYIDSVK	KRAAGTFDS	ND / ND / 2.30 / ND / ND / ND	0 of 18
GFTLNQYGIS	VIYSDGRRTFYSDAVK	GRAAGFFDS	ND / ND / ND / ND / ND / ND	2 of 18 (3.20)
GFDLNSYGIS	VIYSDGRRTFYGDSVK	GRAAMWFNS	ND / ND / ND / ND / ND / ND	0 of 18
GFTLNEYGIS	VIYSDGRRTFYLDSVK	GRAAVTFDQ	ND / ND / ND / ND / ND / ND	0 of 18
GFTQNDYGIS	VIYSDGRRTQYIQSVK	GRAAGTFDS	ND / ND / ND / ND / ND / ND	0 of 18
GRTLDSYGIS	VIYSDGRFTFYGDSVK	GRAAGTALS	ND / ND / ND / ND / ND / ND	0 of 18
GFTLNHYGIS	VIYSDGRRTQYIHSVK	GRAAGTFDS	ND / ND / ND / ND / ND / ND	0 of 18
GFTLNSYGIS	VIYDDGRRTFYDDSVK	GQLAGTFDS	ND / ND / ND / ND / ND / ND	0 of 18
GFTLNDYGPS	VIYSDGRRTFYGDSVK	GRAALTFIS	ND / ND / ND / ND / ND / ND	0 of 18